In the test the target is T1, EYA2-ERβ interaction (Homo sapiens, UniProt Q92731).
T1 construct: made in house; the other protein was 35S-labelled and in vitro translated
Description: Co-IP of endogenous EYA2 and ERβ in MCF7 breast cancer cells. The class given is cell-based. The settings on record: E2 10 nM.

Sequences of proteins named here, by UniProt entry; tags and fusion partners are left off.
UniProt Q92731, whole entry: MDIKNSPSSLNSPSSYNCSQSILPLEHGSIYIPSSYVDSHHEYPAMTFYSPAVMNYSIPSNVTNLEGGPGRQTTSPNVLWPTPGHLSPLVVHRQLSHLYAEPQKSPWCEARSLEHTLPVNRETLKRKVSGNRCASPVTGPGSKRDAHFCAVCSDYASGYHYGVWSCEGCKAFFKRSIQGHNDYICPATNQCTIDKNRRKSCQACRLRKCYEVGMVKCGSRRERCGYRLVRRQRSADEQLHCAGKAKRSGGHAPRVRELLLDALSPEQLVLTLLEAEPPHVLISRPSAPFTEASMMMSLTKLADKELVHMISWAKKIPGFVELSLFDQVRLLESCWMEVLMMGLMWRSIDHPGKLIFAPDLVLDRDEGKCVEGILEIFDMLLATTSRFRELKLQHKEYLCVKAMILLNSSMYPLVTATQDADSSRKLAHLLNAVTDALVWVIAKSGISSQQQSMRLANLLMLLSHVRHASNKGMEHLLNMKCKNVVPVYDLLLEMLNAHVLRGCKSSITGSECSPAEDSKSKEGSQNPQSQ

SMILES strings stand for the structures.

As for `C[C@]12CC[C@@H]3c4ccc(O)cc4CC[C@H]3[C@@H]1CC[C@@H]2O` [E2, 17-β-estradiol], the “EYA2-ERβ interaction (co-IP)” value is “enhanced”.

For the origin of these results see patent US20170176440A1, “METHODS AND COMPOSITIONS FOR EVALUATING BREAST CANCER PATIENTS” (THE BOARD OF REGENTS OF THE UNIVERSITY OF TEXAS SYSTEM, priority 2014, published 2017).
